Reference: patent US4465692A (Nelson Research & Development Company, priority 1982, dated 1984)

Chains of the proteins cited; added tags and fusions are not shown.
UniProt P61169, whole entry: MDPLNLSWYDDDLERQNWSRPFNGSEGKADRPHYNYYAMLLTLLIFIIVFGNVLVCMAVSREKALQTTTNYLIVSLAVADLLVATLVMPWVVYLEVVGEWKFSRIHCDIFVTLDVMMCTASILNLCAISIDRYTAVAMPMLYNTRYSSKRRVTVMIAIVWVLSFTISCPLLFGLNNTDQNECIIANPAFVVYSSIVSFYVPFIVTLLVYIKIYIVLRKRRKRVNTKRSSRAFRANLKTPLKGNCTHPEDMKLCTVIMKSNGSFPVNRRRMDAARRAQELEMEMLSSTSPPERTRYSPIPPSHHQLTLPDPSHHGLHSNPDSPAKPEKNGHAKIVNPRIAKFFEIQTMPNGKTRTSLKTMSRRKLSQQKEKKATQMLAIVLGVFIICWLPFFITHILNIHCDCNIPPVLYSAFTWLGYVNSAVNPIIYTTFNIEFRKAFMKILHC

Columns and labels:
D-2 receptor = D-2 receptor (Rattus norvegicus, UniProt P61169); assay: biochemical
dopamine receptor = dopamine receptor (Rattus norvegicus, UniProt P61169); assay: biochemical

## CCCN(CCc1ccccc1)C1CCc2c(O)cccc2C1 (centres unmarked) [PPHT, 2-(N-phenylethyl-N-propylamino)-5-hydroxytetralin]
D-2 receptor
  IC50: 40 nM
Dopamine receptor
  IC50: 3 nM
